The entries are a selection whose mix differs from that of the whole data set. Active and inactive are the calls of the source.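 The calls were made as follows: active = plate z-score of nuclear minus cytoplasmic receptor signal below a set negative limit, without overly bright fluorescence or cell loss (cut at about -3.5 in these data, passing the limit was not always enough); inactive = the rest, inconclusive results apart.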
Experiment: inhibitors of GR-EGFP nuclear translocation, primary screen, dynein cargo transport inhibitor project, imaging, high-content, 3617.4 mouse cells (AID 1381)
Settings: at 20 µM, stronger effect = lower value, stimulated with dexamethasone, 1 µM

| Compound | z-score |
| --- | --- |
| Cc1c2non([O-])c-2c(C)[n+](=O)[n+]1[O-] | active: -3.59 |
| O=c1c2cc([N+](=O)[O-])ccc2[nH]c2c([N+](=O)[O-])cc([N+](=O)[O-])cc12 | active: -3.53 |
